From paper PMC10503797, “Allosteric modulator potentiates β2AR agonist–promoted bronchoprotection in asthma models” (The Journal of Clinical Investigation, 2023)

Amino acid sequences for entries named in this document (tags omitted).
UniProt Q8K4Z4, whole entry: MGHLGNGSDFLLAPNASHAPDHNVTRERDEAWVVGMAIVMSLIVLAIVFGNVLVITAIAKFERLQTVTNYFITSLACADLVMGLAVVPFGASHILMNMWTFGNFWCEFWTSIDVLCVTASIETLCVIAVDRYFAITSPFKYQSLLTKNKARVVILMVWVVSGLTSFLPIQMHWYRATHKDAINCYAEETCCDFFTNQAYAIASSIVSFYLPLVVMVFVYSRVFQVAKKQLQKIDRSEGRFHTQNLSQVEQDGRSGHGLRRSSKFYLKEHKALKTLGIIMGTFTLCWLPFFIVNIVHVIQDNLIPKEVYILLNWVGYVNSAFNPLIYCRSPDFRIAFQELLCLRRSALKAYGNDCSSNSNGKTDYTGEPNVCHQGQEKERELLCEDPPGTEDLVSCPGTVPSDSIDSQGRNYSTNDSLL

Legend:
[1] = target: guinea pig β2AR (Cavia porcellus, UniProt Q8K4Z4); assay: 125I-CYP radioligand competition binding, guinea pig β2AR; settings: DMSO; Log [Alb] (M) -4.49485
[2] = system: human lung slices; assay: Methacholine-induced airway constriction in human lung slices; format: cell-based; settings: read-out: MCh Emax
[3] = system: guinea pig lung slices; assay: Methacholine-induced airway constriction in guinea pig lung slices; format: cell-based; settings: Cavia porcellus, read-out: MCh Emax
[4] = system: lung slices obtained from ovalbumin-sensitized guinea pigs; assay: Ovalbumin-induced airway constriction in lung slices from ovalbumin-sensitized guinea pigs; format: cell-based, guinea pig; settings: 0.1 μM fenoterol vs control

CC(C)(C)NCC(O)c1ccc(O)c(CO)c1 (stereo not shown) [Alb, albuterol, reference compound] was tested, and the “125I-CYP binding, Alb competition curve (Figure 4E)” value [1] was 5.934 and 7.068 and 8.638 and 6.455.

Work on CC(Cc1ccc(O)cc1)NCC(O)c1cc(O)cc(O)c1 (stereo not shown) [Fenoterol, fenoterol] yielded an Emax at 1 µM [2] of 47.2 ± 5.2%, an Emax at 10 µM [2] of 21.7 ± 2.8% and an Emax at 1 µM [3] of 108 ± 1.9%. For the same molecule, the Emax at 10 µM [3] was 107 ± 1%, the Emax at 100 µM [3] was 102 ± 1.6% and the “Rightward-shift of ovalbumin-induced airway constrictions” value [4] was 190 fold.

Where “and” joins values, the source holds several entries; their conditions need not be identical. Equal values may be shown once.
